{"sequences": {"note": "Amino acid sequences for entries named in this document (tags omitted). A change or cut given only in a name is not applied to a line headed by its entry.", "UniProt P11388": "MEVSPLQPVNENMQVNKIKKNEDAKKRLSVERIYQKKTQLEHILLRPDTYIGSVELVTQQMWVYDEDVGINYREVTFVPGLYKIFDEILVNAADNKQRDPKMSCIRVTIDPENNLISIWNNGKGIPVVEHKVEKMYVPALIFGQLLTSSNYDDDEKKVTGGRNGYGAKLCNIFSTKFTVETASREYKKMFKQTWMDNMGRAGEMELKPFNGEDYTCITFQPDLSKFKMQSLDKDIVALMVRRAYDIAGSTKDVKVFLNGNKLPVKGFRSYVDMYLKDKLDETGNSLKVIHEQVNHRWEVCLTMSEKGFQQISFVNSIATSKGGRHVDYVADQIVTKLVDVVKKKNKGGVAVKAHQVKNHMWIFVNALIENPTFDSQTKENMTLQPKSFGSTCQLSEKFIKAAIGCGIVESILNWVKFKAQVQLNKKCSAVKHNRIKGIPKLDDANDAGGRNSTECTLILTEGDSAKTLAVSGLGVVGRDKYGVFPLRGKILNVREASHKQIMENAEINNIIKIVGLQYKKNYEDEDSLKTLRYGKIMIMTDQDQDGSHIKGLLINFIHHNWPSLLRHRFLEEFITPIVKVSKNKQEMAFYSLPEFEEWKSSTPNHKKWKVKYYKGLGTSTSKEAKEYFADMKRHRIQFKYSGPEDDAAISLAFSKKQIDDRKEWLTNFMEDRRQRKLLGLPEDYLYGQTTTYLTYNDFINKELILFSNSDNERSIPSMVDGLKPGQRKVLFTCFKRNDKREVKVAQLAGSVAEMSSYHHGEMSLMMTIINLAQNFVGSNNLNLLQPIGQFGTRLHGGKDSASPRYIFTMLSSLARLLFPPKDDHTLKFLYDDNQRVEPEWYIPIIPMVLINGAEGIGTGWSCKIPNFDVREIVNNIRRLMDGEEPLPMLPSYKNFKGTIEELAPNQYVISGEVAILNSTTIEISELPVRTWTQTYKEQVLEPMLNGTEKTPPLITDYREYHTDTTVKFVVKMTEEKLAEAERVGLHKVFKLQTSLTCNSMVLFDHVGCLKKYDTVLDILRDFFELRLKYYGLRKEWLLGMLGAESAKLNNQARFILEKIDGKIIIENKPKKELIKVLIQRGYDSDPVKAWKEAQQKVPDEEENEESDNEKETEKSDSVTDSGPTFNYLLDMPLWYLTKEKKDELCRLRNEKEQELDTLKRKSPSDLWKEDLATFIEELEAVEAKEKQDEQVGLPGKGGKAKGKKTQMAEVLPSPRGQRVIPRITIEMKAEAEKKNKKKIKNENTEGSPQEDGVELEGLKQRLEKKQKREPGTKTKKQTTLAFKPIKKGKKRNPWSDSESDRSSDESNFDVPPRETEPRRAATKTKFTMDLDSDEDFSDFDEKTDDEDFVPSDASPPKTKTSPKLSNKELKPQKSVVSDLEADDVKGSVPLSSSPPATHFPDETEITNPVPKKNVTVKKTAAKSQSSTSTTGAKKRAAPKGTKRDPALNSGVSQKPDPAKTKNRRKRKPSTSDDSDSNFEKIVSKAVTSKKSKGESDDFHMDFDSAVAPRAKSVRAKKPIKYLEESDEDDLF"}, "source": "patent US7683097B2", "about": "“Topoisomerase inhibitors” (Propharmacon Inc., priority 2004, dated 2010)", "key": {"human Topo IIα": {"target": "T1, human Topo IIα (Homo sapiens, UniProt P11388)", "T1 construct": "purchased Topogen Inc. Columbus, Ohio", "assay": "Topo IIα decatenation inhibition assay (kDNA, agarose gel)", "type": "biochemical", "settings": "sample gel, FIG. 2; kDNA substrate"}, "MCF-7/ADR": {"tested_on": "MCF-7/ADR", "assay": "Cell proliferation assay, MDR line MCF-7/ADR", "type": "cell-based, human", "settings": "48 hrs exposure; less potent in MCF-7/ADR", "text": "The MCF-7 cell line, the MDR cell line, and the MCF-7/ADR cell line were used. Alamar Blue™ was used to quantitate cell viability."}}}
{"smiles": "COc1cc([C@@H]2c3cc4c(cc3[C@@H](O[C@@H]3O[C@@H]5CO[C@@H](C)O[C@H]5[C@H](O)[C@H]3O)[C@H]3COC(=O)[C@H]23)OCO4)cc(OC)c1O", "note": "[etoposide]", "values": [{"measurement": "inhibition of Topo IIα decatenation", "setting": "human Topo IIα", "result": "partial inhibition"}, {"measurement": "shift in potency, resistant line MCF-7/ADR versus parent line MCF-7", "setting": "MCF-7/ADR", "result": 100, "unit": "fold"}]}
